High-throughput results from PubChem BioAssay.
Sampled rows, rich in hits. Any-hit rate of the full collection: about 1.3%.
ERG Ets-DNA blk = inhibitors of human ERG Ets domain-DNA interaction; actives 0.028% (n = 370,000); Potency, µM (highest dose often 76.9 µM), without a hit: at the top dose FP activity, negative = inhibition, usual class: inhibitors; AID 624246; fluorescence polarization, His-ERG Ets domain / labelled DNA; active means well fitted inhibition curve with a large enough effect in the polarisation, with a control signal flat; inconclusive means small, poorly fitted or top-dose-only effect, or effect the other way, or a change in a side signal; inactive means no such curve, though single readings can be large or run the other way; the % refers to the polarisation;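 further: polarization taken with two DNA probes labelled with fluorescein and Texas red; potency means the concentration at half of the fitted maximal effect; % of control where 0% means no effect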
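His-tagged ERG Ets domain (1 uM in the protein solution; 300mM KCl, 50mM Tris-HCl, 1mM EDTA, 1mM DTT, pH 7.5) received compound, then a probe mix of 5 nM fluorescein-DNA and 100nM Texas-615-DNA. Fluorescence polarization was read for both dyes.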
PTHR1 agonist = PTHR1 (human) receptor agonism. Q03431. HEK293 GP2 PTHR1 cells, GloSensor cAMP luminescence, 1 h. Potency, µM (series often up to 115 µM), inactives show at the highest dose activation, actives largely listed as activators. actives 0.075% (n = 410,000). AID 743266; further: potency means the concentration at half of the fitted maximal effect; nearly all actives have a fitted effect of over 55% in size
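HEK-293-derived GP2 cells expressing PTHR1 and a GloSensor cAMP reporter, 3,000/well, plated overnight, given luciferin plus IBMX (each 0.5 mM as added) for 1 h at 37 °C, then compound for 1 h at 37 °C. Luminescence was read after 15 min at room temperature.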
PINK1 expr mod = changes PINK1 expression | actives 0.2% (n = 410,000) | AID 624263 | Potency, µM (series often up to 76.6 µM), for inactives: top-dose activation (PINK1 increase), actives largely listed as activators | PINK1 immunofluorescence, high-content cytometry, 24 h; active means well fitted activation curve with a large enough effect; inconclusive means small, poorly fitted or top-dose-only effect; cell line not stated here; further: potency means the concentration at half of the fitted maximal effect; % of control where 0% means no effect; nearly all actives have a fitted effect of over 65% in size
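Cells are seeded, rested 12 hours, then given compound at five concentrations or DMSO for 24 hours. After fixation, blocking and antibody staining, PINK1 amount and mitochondrial localization are scored; CCCP serves as control.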
miR-21 FLuc = miR-21 reporter, rising signal; HeLa miR-21 FLuc reporter, luciferase, 48 h; Potency, µM (doses to about 38.3 µM), for inactives: at the highest dose reporter change, positive = more light; 340,000 tested, under 10 active; AID 2288; active = well fitted rising curve with a large enough effect; inconclusive = small, poorly fitted or top-dose-only effect; inactive = no such curve, though single readings can be large or run the other way;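 further: % of control where 0% means no effect; miR-21 action dims this reporter so a rising signal means less miR-21 action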
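HeLa cells endogenously expressing miR-21, stably carrying CMV-driven firefly luciferase with a downstream miR-21 binding site, 2000 cells/well. Titrations up to approximately 40 uM, 48 hours; luciferase luminescence read.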
ALOX12 inh = ALOX12 (human) lipoxygenase inhibition; purified 12hLO, xylenol orange hydroperoxide absorbance; Potency, µM (series often up to 108 µM), for the others: top-dose activity change, negative = inhibition, hits mostly inhibitors; actives 1.1% (n = 580,000); AID 1671190; further: potency means the concentration at half of the fitted maximal effect; on the % scale 0 is the no-effect control and ±100 the full control effect
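Purified human 12hLO at 150 nM in 25 mM Hepes, 0.01% Triton X-100, pH 7.0, preincubated 15 min at room temperature with compound. Reaction started with 40 uM arachidonic acid, 30 min at room temperature. Hydroperoxide measured by Fe-xylenol orange, 573/405 nm absorbance ratio.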
Giardia kill = kills Giardia lamblia. Giardia lamblia trophozoite viability. activity change, % at 7.66 µM, hits read low. actives 0.15% (n = 340,000). AID 540267; in the data active means activity change below about -80%; inconclusive means between about -30% and that limit;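 further: parasites exposed to compound for two days anaerobically before the ATP read; on the % scale 0 is the no-effect control and ±100 the full control effect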
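Trophozoites 100 cells/well + cpd; 48 hrs, 37 deg C, anaerobic. ATPLite 1-Step added, 15-30 min RT, luminescence read (ATP-based viability).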
An asterisk follows results filed as active; i = inactive; u = inconclusive; x = not tested or not shown; [ ] = remark or other dose. Unless noted, the call rests on the fitted dose curve; in most records, active means well fitted curve in the direction sought with a large enough effect; inconclusive means small, poorly fitted or top-dose-only effect, or another doubt; inactive means no such curve, though single readings can be large; an effect the other way counts as inactive or inconclusive.

Order of results: ERG Ets-DNA blk, PTHR1 agonist, PINK1 expr mod, miR-21 FLuc, ALOX12 inh, Giardia kill
#1 Cc1ccc(-c2nc3c(Cl)cc(C(F)(F)F)cn3c2Cc2ccccc2C(F)(F)F)cc1
 : x, -22%, 2%, x, u, x
#2 FC(F)(F)c1cc(Cl)c2nc(-c3ccco3)c(Cc3ccccc3C(F)(F)F)n2c1
 : x, -63%, 14%, x, 10µM*, x
#3 CCc1nnc(NC(=O)c2cc(=O)c3cc(Cl)cc(Cl)c3o2)s1
 : x, x, x, x, 2%, x
#4 Cc1ccc(-c2cc(Nc3ccc(C(=O)N(C)Cc4ccccc4)cc3)ncn2)cc1
 : x, x, x, x, -29%, x
#5 CCN(CCO)c1ccc(Nc2cc(-c3ccc(-c4ccccc4)cc3)ncn2)cc1
 : x, -11%, 0%, x, 11µM*, x
#6 CCN1C(=O)N[C@@H](CCc2ccccc2)C(C(C)=O)=C1C
 : -7%, -23%, 2%, x, 8%, -27
#7 Cc1ccc(Nc2ncccc2C(N)=O)cc1
 : -5%, -20%, 0%, -78%, 1%, -28
#8 COc1ccc(-c2cc3nccn3c(Nc3ncccc3C(N)=O)n2)cc1OC
 : x, x, x, x, 1.4µM*, x
#9 CC(=O)NC1(C)CCN(Cc2ccccc2-c2ccccc2Oc2ccccc2)C1 (stereo not given)
 : x, x, x, x, 35µM*, x
#10 CC(=O)NC1(C)CCN(Cc2cccc(Nc3ccccc3)c2)C1 (stereo not given)
 : x, x, x, x, 6%[176 µM], x
#11 COc1cc(CN2CCC(C)(NC(C)=O)CC2)cc(Nc2ccccc2)c1
 : x, x, x, x, 13µM*, x
#12 Cc1scc(C(=O)N/N=C/c2ccc(OCC(C)C)cc2)c1C
 : 4%, -9%[57.5 µM], 0%, 4%, 17%, 5
#13 CCc1cc(=O)oc2c(C)c3c(cc12)CN(CCc1ccccc1)CO3
 : -2%, i, -1%, -3%, u, x
#14 S=C(NCCc1ccccc1)N1CCC2CC1c1c(Cl)cccc12 (stereo not given)
 : x, i, 6%, x, u, x
#15 COCCNC(=S)N1CCC2CC1c1cc(-c3ccc4c(c3)OCO4)ccc12 (stereo not given)
 : x, -23%, 2%, x, 28µM*, x

Three neighbouring compounds from above, quoted:
Order of results: ERG Ets-DNA blk, PTHR1 agonist, PINK1 expr mod, miR-21 FLuc, ALOX12 inh, Giardia kill
#13 CCc1cc(=O)oc2c(C)c3c(cc12)CN(CCc1ccccc1)CO3
 : -2%, i, -1%, -3%, u, x
#14 S=C(NCCc1ccccc1)N1CCC2CC1c1c(Cl)cccc12 (stereo not given)
 : x, i, 6%, x, u, x
#15 COCCNC(=S)N1CCC2CC1c1cc(-c3ccc4c(c3)OCO4)ccc12 (stereo not given)
 : x, -23%, 2%, x, 28µM*, x

Later entries:
Order of results: ERG Ets-DNA blk, PTHR1 agonist, PINK1 expr mod, miR-21 FLuc, ALOX12 inh, Giardia kill
#16 S=C(NCCc1ccccc1)N1CCC2CC1c1cc(-c3ccc4c(c3)OCO4)ccc12 (stereo not given)
 : x, -8%, 0%, x, 28µM*, x
#17 O=C(c1ccccc1F)N1CCC2CC1c1cc(-c3ccc4c(c3)OCO4)ccc12 (stereo not given)
 : x, 8%, -1%, x, -12%, x
#18 CNC(=O)c1cc(-c2ccnc(NC(C)=O)c2)cc2c1OCCN2Cc1cccnc1
 : x, x, x, x, -16%[176 µM], x
#19 CN(C)c1ccc(/C=C2\SC(=S)N(Nc3ncc(C(F)(F)F)cc3Cl)C2=O)cc1
 : u, i, 18µM*, 0%, -18%, -10
#20 COc1cc(/C=C2\SC(=S)N(Nc3ncc(C(F)(F)F)cc3Cl)C2=O)ccc1O
 : x, -30%, 3%, -7%, x, 2
#21 O=C(NCc1ccccn1)C1CCCN(S(=O)(=O)c2cc(Cl)ccc2Cl)C1 (stereo not given)
 : 9%, i, 1%, x, x, -83*
#22 CN1c2cccc3cccc(c23)N(C)C1(C)C
 : 21%, i, 1%, 6%, -23%, 5
#23 CN1c2ccccc2N(C)C1(C)c1cccc2ccccc12
 : 13%, -82%, u, 2%, 35µM*, 2
#24 O=C1CC(N(CCc2ccccc2)C(=S)Nc2ccccc2)C(=O)N1c1ccccc1 (stereo not given)
 : x, -95%, 25µM*, 25%, -16%, 11
#25 COC(=O)CN(C(=S)Nc1ccc(F)cc1)C1CC(=O)N(c2ccc(OC)cc2)C1=O (stereo not given)
 : -1%, i, u, -3%, 32µM*, 9
#26 COC(=O)CN(C(=S)Nc1ccccc1)C1CC(=O)N(c2ccc(OC)cc2)C1=O (stereo not given)
 : -3%, -5%, 1%, -13%, u, 2
#27 COc1ccc(C2C(C(=O)OCC3CCCO3)=C(C)NC3=C2C(=O)CC(c2ccco2)C3)cc1O (stereo not given)
 : 2%, i, 1%, -9%, 8.9µM*, -5
#28 CC1=C(C(=O)OCC2CCCO2)C(c2ccccc2)C2=C(CCCC2=O)N1 (stereo not given)
 : -11%, -24%, -1%, 6%, -28%, -15
#29 COCCn1c(C)cc(O)c(C(c2ccccc2)N2CCN(c3ccccc3)CC2)c1=O (stereo not given)
 : -1%, 24%, -1%, -1%, -21%, x
#30 COc1cccc2c1C(=O)c1c(O)c3c(c(O)c1C2=O)C[C@@](O)(C(C)=O)C[C@H]3O[C@H]1C[C@H](N)[C@H](O)[C@H](C)O1
 : x, x, x, x, 34%[57.4 µM], x

Continued; the last two above are carried over.
Order of results: ERG Ets-DNA blk, PTHR1 agonist, PINK1 expr mod, miR-21 FLuc, ALOX12 inh, Giardia kill
#29 COCCn1c(C)cc(O)c(C(c2ccccc2)N2CCN(c3ccccc3)CC2)c1=O (stereo not given)
 : -1%, 24%, -1%, -1%, -21%, x
#30 COc1cccc2c1C(=O)c1c(O)c3c(c(O)c1C2=O)C[C@@](O)(C(C)=O)C[C@H]3O[C@H]1C[C@H](N)[C@H](O)[C@H](C)O1
 : x, x, x, x, 34%[57.4 µM], x
#31 COc1cccc2c1C(=O)c1c(O)c3c(c(O)c1C2=O)CC(O)(C(C)=O)CC3OC1CC(N(C)C)C(O)C(C)O1 (stereo not given)
 : 1µM*, i, -7%, x, 5%, -18
#32 CN1C[C@H](NC(=O)NC2(c3ccccc3)CCOCC2)CCC[C@@H](C(=O)NCc2cc(F)cc(F)c2)CC1=O
 : x, x, x, x, 22µM*, x
#33 CCc1cccc2c(C(C)=O)cn(CC(=O)NC3CC3)c12
 : x, x, x, x, 32µM*, x
#34 CC(=O)c1cn(CC(=O)NC2CCCCCC2)c2ccccc12
 : x, x, x, x, 15%, x
#35 COC(=O)[C@H](CC(C)C)N(Cc1cn(Cc2ccccc2)nn1)S(=O)(=O)c1ccccc1Br
 : x, x, x, x, -9%, x
#36 COC(=O)[C@H](CC(C)C)N(Cc1cn(Cc2ccc(C)cc2)nn1)S(=O)(=O)c1ccccc1Br
 : x, x, x, x, 8.9µM*, x
#37 O=C(O)CSc1c2c(nc3cc(C(=O)Nc4cccc(C(F)(F)F)c4)ccc13)CCC2
 : 14%, i, 0%, -5%, 45µM*, 3
#38 COc1cc(/C=C2\SC(c3ccc(C)cc3)=NC2=O)ccc1O
 : x, -64%, -1%[38.3 µM], -21%, 6.3µM*, -13
#39 COc1cc(/C=C2\SC(c3ccccc3)=NC2=O)cc(Cl)c1O
 : 41%, -10%, -1%, -4%, 8.9µM*, u
#40 O=C(COC(=O)COc1ccccc1)Nc1ccccc1OC(F)F
 : -16%, -18%[57.5 µM], 0%, 0%, 12%, 6
#41 Cc1ccc(C(=O)N2CCC3(CC2)NC(=O)N(c2ccccc2)N3)cc1F
 : x, x, x, x, 4µM*, x
#42 CN(C)c1ccc(C(=O)N2CCC3(CC2)NC(=O)N(c2ccccc2)N3)cc1
 : x, x, x, x, 2.8µM*, x
#43 CN(CCO)C(=O)c1cn(C2CCN(Cc3cccc4ccccc34)CC2)nn1
 : x, x, 2%, x, -3%, x
#44 CCC(C)(C)NC(=O)C(c1cccs1)N(CC1CCCO1)C(=O)Cn1nnc2ccccc21 (stereo not given)
 : 8%, 7%[57.5 µM], 0%, -4%, 10%, -2
#45 CCCCC(=O)Nc1ncc([N+](=O)[O-])s1
 : -1%, -35%, 2%, -7%, 0%, -90*
